# Binding of CDR-mutated scFvs to a peptide of the spike HR2 region

Target peptide (SARS-CoV-2 spike, HR2 region): PDVDLGDISGINAS

The variants keep the heavy chain, the linker and the frameworks of Ab-14 (scFv order VH, three GGGGS repeats, VL).
VH: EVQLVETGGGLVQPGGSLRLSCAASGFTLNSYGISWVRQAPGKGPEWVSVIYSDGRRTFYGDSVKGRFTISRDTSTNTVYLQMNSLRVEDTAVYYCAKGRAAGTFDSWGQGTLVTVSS
VL: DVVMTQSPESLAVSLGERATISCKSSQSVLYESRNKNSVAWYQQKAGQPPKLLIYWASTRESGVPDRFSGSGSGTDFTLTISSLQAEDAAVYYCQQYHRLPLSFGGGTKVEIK

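Phage display of a naive human antibody library on the peptide gave the parent. These sequences belong to a second round, designed from the earlier measurements on random variants of the parent. Their group label is 14L_GP_Gibbs (GP: Gaussian process model; Gibbs: Gibbs sampling; a sequence that several methods proposed may carry one label only). In AlphaSeq, yeast of one mating type display the scFv and yeast of the other type display the target. After mating in shaken culture at 30 °C for 16 h, diploids were selected and their barcode pairs sequenced. Scores were corrected for input abundance and mapped to Kd with protein pairs of known affinity run in the same pool. There are six technical replicates.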

The whole VL of each variant is written out.
Affinities are written as log10 Kd with Kd in nM; a lower number is a better binder.
"n.d." means that the variant was in the library but no mating with the target was seen in that replicate; the authors take this as a sign of poor binding, and no number exists.
As a blank, each scFv also met three strains without target: over all light chain designs, 4% of these pairings were detected, typically at 2.64 and seldom below 1.59. For each scFv, signals with the empty controls are counted beside the result, with their mean in brackets.

VL,"log10 Kd, replicates",signal with controls
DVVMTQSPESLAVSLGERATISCKYSQQMLYSSRNKNNVAWYQQKAGQPPKLLIYEASHRESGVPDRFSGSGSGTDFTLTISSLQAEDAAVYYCQQYHRLPLSFGGGTKVEIK,0.41 0.10 0.07 0.45 0.19 0.59,1 of 18 (2.67)
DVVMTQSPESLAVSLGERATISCKVSQSWEYEDRNKNSVAWYQQKAGQPPKLLIYQASQRCSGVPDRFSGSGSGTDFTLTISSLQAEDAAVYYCQQYHRLPLSFGGGTKVEIK,0.12 -0.10 -0.07 0.03 -0.09 -0.02,2 of 18 (3.66)
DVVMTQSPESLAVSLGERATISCKVSMSVEMQQRNPNSVAWYQQKAGQPPKLLIYSASTRLSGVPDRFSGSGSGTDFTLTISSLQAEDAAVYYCQQYHRLPLSFGGGTKVEIK,-0.28 -0.49 -0.41 -0.61 -0.45 -0.30,0 of 18
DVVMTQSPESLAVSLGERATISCKLQQSWEYESRNSNNVAWYQQKAGQPPKLLIYQASTRSSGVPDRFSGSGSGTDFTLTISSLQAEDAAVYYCQQYHRLPLSFGGGTKVEIK,-0.10 -0.10 -0.27 -0.41 -0.22 -0.16,1 of 18 (2.43)
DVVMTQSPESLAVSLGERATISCKLHISDGYESRNKNSVAWYQQKAGQPPKLLIYSASTRSHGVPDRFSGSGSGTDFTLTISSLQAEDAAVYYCQQYHRLPLSFGGGTKVEIK,0.24 0.16 0.05 -0.10 0.14 0.11,1 of 18 (2.23)
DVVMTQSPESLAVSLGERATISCKVEQSNDYESRNKQSVAWYQQKAGQPPKLLIYNASQRLKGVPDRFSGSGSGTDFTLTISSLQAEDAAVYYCQQYHRLPLSFGGGTKVEIK,0.50 0.48 0.47 0.46 0.38 0.63,0 of 18
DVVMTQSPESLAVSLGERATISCKVHQSQLYESRQINSVAWYQQKAGQPPKLLIYNASQRCSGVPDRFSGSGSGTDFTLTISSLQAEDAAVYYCQQYHRLPLSFGGGTKVEIK,0.34 0.19 0.20 0.21 0.02 0.29,0 of 18
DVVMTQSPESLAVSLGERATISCKVEMSVPYEDRNKNSVAWYQQKAGQPPKLLIYHASVRESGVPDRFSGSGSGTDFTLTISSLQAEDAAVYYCQQYHRLPLSFGGGTKVEIK,0.39 -0.42 n.d. n.d. 0.26 0.65,0 of 18
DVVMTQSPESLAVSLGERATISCKSMQSELDENRNDNSVAWYQQKAGQPPKLLIYSASTRLEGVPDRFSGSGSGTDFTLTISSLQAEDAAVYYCQQYHRLPLSFGGGTKVEIK,0.28 0.19 -0.11 0.21 0.17 0.07,2 of 18 (2.52)
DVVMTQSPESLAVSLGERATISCKLSQSWLYLSRNVNAVAWYQQKAGQPPKLLIYEASQRLSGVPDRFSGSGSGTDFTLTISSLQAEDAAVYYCQDYHRLPLSFGGGTKVEIK,0.37 -0.02 0.00 -0.17 0.54 0.08,0 of 18
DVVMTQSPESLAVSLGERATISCKVVQSHDYESRNKNSVAWYQQKAGQPPKLLIYDASTRCSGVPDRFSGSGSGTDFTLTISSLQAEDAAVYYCQQYHRLPLSFGGGTKVEIK,0.08 -0.01 -0.12 -0.24 -0.08 0.09,3 of 18 (3.13)
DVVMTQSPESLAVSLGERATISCKVDFLGDMESRNKNSVAWYQQKAGQPPKLLIYSASTRESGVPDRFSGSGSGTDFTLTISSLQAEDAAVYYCQQYHRLPLSFGGGTKVEIK,0.04 -0.05 -0.18 -0.19 -0.22 -0.12,2 of 18 (2.35)
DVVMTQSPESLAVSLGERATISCKLENSNLYESRNGNSVAWYQQKAGQPPKLLIYNASTRLHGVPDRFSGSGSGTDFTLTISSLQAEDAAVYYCQQYHRLPLSFGGGTKVEIK,0.14 0.06 0.10 -0.14 -0.07 0.04,0 of 18
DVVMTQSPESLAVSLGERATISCKYSQSDGYESRNFNSVAWYQQKAGQPPKLLIYNASTRSHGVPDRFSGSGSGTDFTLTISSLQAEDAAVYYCQQYHRLPLSFGGGTKVEIK,0.26 0.29 0.06 0.50 0.13 0.26,0 of 18
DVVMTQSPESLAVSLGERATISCKLQSLWLYESRNKNNVAWYQQKAGQPPKLLIYSASTRYSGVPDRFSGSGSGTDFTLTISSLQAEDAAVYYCQQYHRLPLSFGGGTKVEIK,0.50 -0.25 -0.12 -0.08 -0.32 0.18,0 of 18
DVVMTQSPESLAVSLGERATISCHLSQSWLMESRNSNSVAWYQQKAGQPPKLLIYDASTRLSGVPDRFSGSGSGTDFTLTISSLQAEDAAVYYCQQYHRLPLSFGGGTKVEIK,0.36 0.43 0.21 0.01 0.05 0.41,0 of 18
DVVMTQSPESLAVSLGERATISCKLSQSEPYERRNKNSVAWYQQKAGQPPKLLIYNASYRMSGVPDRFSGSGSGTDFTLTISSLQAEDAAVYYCQQYHRLPLSFGGGTKVEIK,0.30 0.00 0.04 0.26 0.26 0.36,0 of 18
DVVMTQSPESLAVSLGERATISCKLLQSVLDESRNDNSVAWYQQKAGQPPKLLIYNASHRLSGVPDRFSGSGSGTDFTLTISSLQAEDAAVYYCQQYHRLPLSFGGGTKVEIK,0.76 1.19 0.70 1.14 1.09 1.35,2 of 18 (2.84)
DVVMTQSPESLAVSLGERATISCKVSMQQLYSSRNKNSVAWYQQKAGQPPKLLIYDASTRESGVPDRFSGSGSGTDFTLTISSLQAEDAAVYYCQQYHRLPLSFGGGTKVEIK,-0.36 -0.22 -0.49 -0.48 -0.25 -0.05,2 of 18 (2.37)
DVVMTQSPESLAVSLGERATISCKLSSSFLYEDRMKNSVAWYQQKAGQPPKLLIYQASQRESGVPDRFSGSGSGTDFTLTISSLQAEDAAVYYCQQYHRLPLSFGGGTKVEIK,0.73 0.69 0.45 0.57 0.50 0.58,2 of 18 (3.88)
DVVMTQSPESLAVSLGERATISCKLSNSELYESRQKNSVAWYQQKAGQPPKLLIYQASQREMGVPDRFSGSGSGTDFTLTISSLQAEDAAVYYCQQYHRLPLSFGGGTKVEIK,n.d. n.d. n.d. n.d. n.d. 1.42,0 of 18
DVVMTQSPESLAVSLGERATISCKLEQSTLYEQRMCNSVAWYQQKAGQPPKLLIYNASQRESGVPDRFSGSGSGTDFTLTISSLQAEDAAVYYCQQYHRLPLSFGGGTKVEIK,-0.17 0.47 0.05 0.04 -0.29 0.04,0 of 18

In the paper, a design with two or fewer of six values counts as a poor binder.
Values of this round are not directly comparable with the first-round values of the same sequences.

Source: Li et al. 2023 (doi:10.1038/s41467-023-39022-2), MIT Lincoln Laboratory and A-Alpha Bio; data file from the FLAb repository.